Tests used:
[1] = target: Ang II type 1 receptor from human placenta (Homo sapiens, UniProt P30556); test: Radio-labeled Ang II binding activity in animal cells (COS7/pHARp306) expressing full-length Ang II type 1 receptor gene from human placenta; settings: 10 μM agonist or antagonist added; 100 pM [125I]-Ang II; room temperature, 60 minutes; control (none) 84,148 cpm
[2] = target: Ang II type 1 receptor of human placental origin (Homo sapiens, UniProt P30556); test: Binding of radiolabeled Ang II (competition) using membrane fraction of CHO/pHARp306 cells; settings: [125I]-Ang II, 22° C., 45 minutes
[3] = target: Ang II type 1 receptor of human heart origin (Homo sapiens, UniProt P30556); test: Binding of radiolabeled Ang II (competition) using membrane fraction of control CHO/pHARt306 cells; settings: [125I]-Ang II, 22° C., 45 minutes

CC[C@H](C)[C@H](NC(=O)[C@H](Cc1ccc(O)cc1)NC(=O)[C@@H](NC(=O)[C@H](CCCNC(=N)N)NC(=O)[C@@H](N)CC(=O)O)C(C)C)C(=O)N[C@@H](Cc1c[nH]cn1)C(=O)N1CCC[C@H]1C(=O)N[C@@H](Cc1ccccc1)C(=O)N[C@@H](Cc1c[nH]cn1)C(=O)N[C@@H](CC(C)C)C(=O)O
Radioactivity (bound [125I]-labeled Ang II) [1]: 2,326 cpm | Competition; IC50 [-log(M)], column A (second; B in text) [2]: 6.99 -log(M) | Competition; IC50 [-log(M)] [3]: 6.44 -log(M)
